Data published in patent publication US11498930B2 (BLUERAY THERAPEUTICS (SHANGHAI) CO., LTD., priority 2018, dated 2022).

Tested on: MOLM-13 cells
Test: MOLM-13 cell proliferation experiment
Assay type: cell-based
Conditions: Homo sapiens, MOLM-13, read-out: MOLM-13 cell proliferation IC50
Method: After 3 days, 5 µL of CellTiter-Glo reagent (Promega, ZG7572) was added to each well, and the plates were kept at room temperature in the dark for 10 minutes. The […] was detected by Spectra max i3 (Molecular Devices). The relative growth rate of the treated cells was compared with that of DMSO control.

IC50: 1370 nM
Compound: CC1(N)CCN(c2cnc(-c3cccc(Cl)c3Cl)c(N)n2)CC1 [SHP099, 6-(4-amino-4-methylpiperidin-1-yl)-3-(2,3-dichlorophenyl)pyrazin-2-amine, reference compound]
